Laboratory results as given in article PMC2820364 (The Biochemical journal, 2008).

Chains of the proteins cited; added tags and fusions are not shown.
UniProt P42338, whole entry D862Q, species assumed: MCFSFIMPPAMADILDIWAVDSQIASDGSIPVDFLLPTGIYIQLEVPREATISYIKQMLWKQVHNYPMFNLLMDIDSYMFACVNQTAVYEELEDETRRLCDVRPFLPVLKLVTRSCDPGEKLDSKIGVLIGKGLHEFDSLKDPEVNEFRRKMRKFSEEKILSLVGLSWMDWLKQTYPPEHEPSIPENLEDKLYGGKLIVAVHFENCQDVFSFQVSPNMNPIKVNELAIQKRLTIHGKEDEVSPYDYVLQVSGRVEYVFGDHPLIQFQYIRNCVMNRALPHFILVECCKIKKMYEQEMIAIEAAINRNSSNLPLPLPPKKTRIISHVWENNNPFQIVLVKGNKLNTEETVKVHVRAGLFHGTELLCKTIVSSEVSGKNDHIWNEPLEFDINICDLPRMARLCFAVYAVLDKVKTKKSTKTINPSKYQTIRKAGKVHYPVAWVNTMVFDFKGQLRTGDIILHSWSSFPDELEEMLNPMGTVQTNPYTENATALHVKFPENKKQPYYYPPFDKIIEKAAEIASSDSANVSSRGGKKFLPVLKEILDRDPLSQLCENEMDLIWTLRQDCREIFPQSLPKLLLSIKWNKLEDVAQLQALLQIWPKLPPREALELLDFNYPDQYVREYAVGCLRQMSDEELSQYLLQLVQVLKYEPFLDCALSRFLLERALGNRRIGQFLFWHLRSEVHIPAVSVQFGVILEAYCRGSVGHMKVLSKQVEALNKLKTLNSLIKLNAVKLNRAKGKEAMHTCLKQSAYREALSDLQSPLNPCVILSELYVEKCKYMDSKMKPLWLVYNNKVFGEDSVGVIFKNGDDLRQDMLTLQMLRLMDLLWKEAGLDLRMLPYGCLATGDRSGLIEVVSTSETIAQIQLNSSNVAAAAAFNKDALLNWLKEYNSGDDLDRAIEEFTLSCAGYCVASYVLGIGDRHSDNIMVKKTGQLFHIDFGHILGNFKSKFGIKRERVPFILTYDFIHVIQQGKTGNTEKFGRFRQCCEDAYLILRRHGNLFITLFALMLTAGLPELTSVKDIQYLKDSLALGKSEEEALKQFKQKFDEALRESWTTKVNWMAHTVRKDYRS
UniProt P42338, whole entry E858H, species assumed: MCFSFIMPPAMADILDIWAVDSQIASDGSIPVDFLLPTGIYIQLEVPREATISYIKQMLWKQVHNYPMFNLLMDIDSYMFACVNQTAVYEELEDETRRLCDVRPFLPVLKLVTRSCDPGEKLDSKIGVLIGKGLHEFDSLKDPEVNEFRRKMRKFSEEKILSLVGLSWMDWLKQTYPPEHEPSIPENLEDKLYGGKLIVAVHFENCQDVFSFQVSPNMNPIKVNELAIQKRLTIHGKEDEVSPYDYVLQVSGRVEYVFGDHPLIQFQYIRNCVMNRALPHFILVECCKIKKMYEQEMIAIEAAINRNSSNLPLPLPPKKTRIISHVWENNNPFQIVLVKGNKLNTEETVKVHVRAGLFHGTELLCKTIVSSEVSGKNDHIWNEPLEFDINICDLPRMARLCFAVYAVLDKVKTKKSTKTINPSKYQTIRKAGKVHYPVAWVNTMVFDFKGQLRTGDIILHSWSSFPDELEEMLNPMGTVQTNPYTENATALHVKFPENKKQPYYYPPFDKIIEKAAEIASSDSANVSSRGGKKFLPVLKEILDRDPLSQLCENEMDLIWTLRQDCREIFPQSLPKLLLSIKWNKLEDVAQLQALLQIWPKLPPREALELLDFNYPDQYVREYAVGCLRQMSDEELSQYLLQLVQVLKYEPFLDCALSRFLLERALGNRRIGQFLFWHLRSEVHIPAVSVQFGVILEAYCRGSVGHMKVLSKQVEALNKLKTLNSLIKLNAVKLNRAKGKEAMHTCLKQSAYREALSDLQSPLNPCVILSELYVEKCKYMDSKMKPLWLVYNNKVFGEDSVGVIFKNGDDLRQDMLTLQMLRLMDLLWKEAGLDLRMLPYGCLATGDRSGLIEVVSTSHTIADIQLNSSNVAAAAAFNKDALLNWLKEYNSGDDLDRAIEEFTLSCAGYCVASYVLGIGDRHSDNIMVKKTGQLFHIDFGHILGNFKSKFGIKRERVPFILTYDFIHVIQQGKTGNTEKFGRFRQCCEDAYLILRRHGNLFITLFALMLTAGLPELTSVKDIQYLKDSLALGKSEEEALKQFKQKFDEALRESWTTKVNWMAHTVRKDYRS

Columns and labels:
p110β (D862Q) = p110β (D862Q) (Homo sapiens, UniProt P42338, D862Q); assay: PI3K lipid kinase inhibition assay, p110β D862Q mutant; format: biochemical
p110β (E858H) = p110β (E858H) (Homo sapiens, UniProt P42338, E858H); assay: PI3K lipid kinase inhibition assay, p110β E858H mutant; format: biochemical

O=c1cc(N2CCOCC2)oc2c(-c3ccccc3)cccc12 [LY294002]
IC50 (p110β (D862Q)): 620 nM
IC50 (p110β (E858H)): 360 nM
